Earlier results on one substance are cited in article PMC4869912.

As usually defined, the Kd is a measure of binding affinity in units of concentration.

In the data set the target is MLCK peptide (MLCKp) 15-aa CaM-binding domain fragment (UniProt Q15746).

For Calmodulin (from UniProt P0DP23), the Kd is 6 pM.
